# Test results taken from patent US11512090B2, “Muscarinic acetylcholine M1 receptor antagonists” (PIPELINE THERAPEUTICS, INC., priority 2018, dated 2022).
# Sequences of proteins named here, by UniProt entry; tags and fusion partners are left off.
# UniProt P08172, whole entry: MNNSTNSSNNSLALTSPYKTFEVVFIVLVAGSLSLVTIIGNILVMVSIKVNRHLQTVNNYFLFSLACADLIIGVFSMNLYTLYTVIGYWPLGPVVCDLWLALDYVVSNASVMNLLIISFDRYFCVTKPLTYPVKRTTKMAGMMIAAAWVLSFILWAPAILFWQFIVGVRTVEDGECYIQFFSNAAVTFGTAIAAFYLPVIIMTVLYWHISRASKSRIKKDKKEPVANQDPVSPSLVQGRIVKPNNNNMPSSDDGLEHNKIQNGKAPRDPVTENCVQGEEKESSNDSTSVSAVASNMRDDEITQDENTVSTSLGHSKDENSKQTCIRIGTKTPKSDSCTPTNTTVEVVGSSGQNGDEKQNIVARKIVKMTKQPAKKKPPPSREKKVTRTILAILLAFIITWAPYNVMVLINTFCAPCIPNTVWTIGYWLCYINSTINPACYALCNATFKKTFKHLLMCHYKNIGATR
# UniProt P20309, whole entry: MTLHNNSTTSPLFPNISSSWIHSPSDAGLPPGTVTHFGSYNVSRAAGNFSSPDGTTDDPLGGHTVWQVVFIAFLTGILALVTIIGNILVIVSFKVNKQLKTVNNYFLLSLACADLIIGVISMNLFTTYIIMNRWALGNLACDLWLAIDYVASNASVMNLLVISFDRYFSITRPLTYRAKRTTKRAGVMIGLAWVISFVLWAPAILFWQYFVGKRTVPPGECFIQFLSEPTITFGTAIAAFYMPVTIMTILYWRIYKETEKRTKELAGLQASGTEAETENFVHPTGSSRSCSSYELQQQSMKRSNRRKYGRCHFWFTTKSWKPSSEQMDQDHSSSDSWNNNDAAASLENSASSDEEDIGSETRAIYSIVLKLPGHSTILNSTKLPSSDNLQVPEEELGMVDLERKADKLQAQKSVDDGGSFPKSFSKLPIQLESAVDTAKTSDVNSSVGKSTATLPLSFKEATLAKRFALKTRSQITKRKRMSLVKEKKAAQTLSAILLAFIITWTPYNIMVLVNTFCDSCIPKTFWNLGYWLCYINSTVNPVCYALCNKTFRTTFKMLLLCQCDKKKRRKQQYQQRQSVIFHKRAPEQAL
# Columns and labels:
# M2 = M2 (Homo sapiens, UniProt P08172); assay: In vitro functional assay of muscarinic acetylcholine receptor activity, M2; assay type: cell-based
# Procedure: [The procedure below names another target; the source lists this target under the same test.] (§1) CHO-K1 cells stably expressing human M1 receptor with Aequorin (Perkin Elmer) were grown in F12 media, 10% FBS with 0.4 mg/mL geneticin and […]. Cells were grown to confluence and frozen down to be assayed at a later date. On the day of the experiment cells were thawed in a 37° C. water bath, resuspended in DMEM/HAM's F12 with HEPES (Invitrogen)+0.1% protease-free BSA (assay buffer), and spun down to remove freezing media. After centrifugation, supernatant was removed and 12 mL of assay buffer was added. Coelenterazine h (Promega) was added to the cells at a final concentration of 5 uM and incubated for 4 hours at room temperature in the dark. Compound master plate-96 deep well (Corning) were formatted in a 8-point DRC in assay buffer with 0.2% DMSO at a starting concentration of 60 uM (2×). […]
# (§2) Calcium flux was measured using the FlexStation 3 (Molecular Devices). To measure the antagonist dose-response, the EC80 of Acetylcholine was injected to the daughter plate using the automated compound transfer function of the Flex Station, and the increase in luminescence was measured over time. Antagonist activity was analyzed as a concentration dependent decrease in the EC80 acetylcholine response. […] The IC50 of the compounds was calculated from the dose response curve.
# M3 = M3 (Homo sapiens, UniProt P20309); assay: In vitro functional assay of muscarinic acetylcholine receptor activity, M3; assay type: cell-based
# Procedure: [The procedure below names another target; the source lists this target under the same test.] as §1, §2
smiles,measurement,setting,value
"N#Cc1ccc(N2C3CCC2CN(C(=O)CCNCc2c(F)ccc4ncnn24)C3)nc1 [Example 41, 6-(3-{3-[({6-fluoro-[1,2,4]triazolo[1,5-a]pyridin-5-yl}methyl)amino]propanoyl}-3,8-diazabicyclo[3.2.1]octan-8-yl)pyridine-3-carbonitrile]",IC50,M2,1 to 10 µM
same,IC50,M3,> 10 µM
